Binding of CDR-mutated scFvs to a peptide of the spike HR2 region

The measurements come from Engelhart et al. 2022 (doi:10.1038/s41597-022-01779-4) through the FLAb antibody collection.

Binding partner: SARS-CoV-2 spike HR2 peptide, sequence PDVDLGDISGINAS.

The variants keep the light chain, the linker and the frameworks of Ab-14 (scFv order VH, a 15-residue (Gly4Ser)3 linker, VL).
VH: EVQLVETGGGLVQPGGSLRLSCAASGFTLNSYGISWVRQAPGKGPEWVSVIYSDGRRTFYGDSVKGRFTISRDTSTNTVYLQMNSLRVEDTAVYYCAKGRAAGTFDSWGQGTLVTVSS
VL: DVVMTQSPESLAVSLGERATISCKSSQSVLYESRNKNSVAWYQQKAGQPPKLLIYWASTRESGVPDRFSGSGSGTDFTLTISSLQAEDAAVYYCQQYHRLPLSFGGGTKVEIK

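The parent was found by panning a naive human phage display library on the peptide. Variants in AAYL49 differ from the parent at up to three CDR positions; double and triple changes were sampled at random. In AlphaSeq, yeast of one mating type display the scFv and yeast of the other type display the target. Mating (16 h, 30 °C) was followed by selection of diploids and sequencing of their barcodes. Each replicate has its own calibration line, from reference interactions of the BCL2 family. There are three technical replicates.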

Substitutions are numbered in sequence along the VH above, starting at 1 (not Kabat). This list gathers variants with a substitution at I51 (VH, numbered from residue 1). Affinities are written as log10 Kd with Kd in nM; a lower number is a better binder. A mean of the replicates is given; it leaves out those without a signal. An entry "nd" has no value in the source: the pair was not observed among the diploids in any replicate. This suggests poor binding but is not conclusive. In this assay the parent's reference entry averaged 0.65; its copy inside this library read 4.11 (one replicate of three). Background: pairings of library AAYL49 with three empty control strains gave a value in 15% of cases (median 4.06, 5th percentile 2.83). Values in that range, when seen in few replicates, are hard to tell from nonspecific mating.

G33T I51M R56Q: nd (0 of 3 replicates).
V50E I51N F105G: 4.48 (2 of 3 replicates).
I51E D54P V64F: 4.38 (1 of 3 replicates).
F27K I51P F105W: 4.78 (2 of 3 replicates).
S31N I51E T104N: 4.73 (1 of 3 replicates).
I51Q R56K A102F: 3.19 (2 of 3 replicates).
L29D G33L I51L: 5.76 (1 of 3 replicates).
I51Q S53A: 3.06 (3 of 3 replicates).
I51Q R56L F105R: nd (0 of 3 replicates).
I51A S53F G55V: nd (0 of 3 replicates).
I51G G99Q G103K: 4.18 (1 of 3 replicates).
T28R I51L D106Y: 4.95 (1 of 3 replicates).
F27P S35N I51K: nd (0 of 3 replicates).
F27L I51C R56W: 4.76 (2 of 3 replicates).
Y32Q I51P S107T: 4.49 (3 of 3 replicates).
G26L V50A I51P: nd (0 of 3 replicates).
I34M I51G D106Q: nd (0 of 3 replicates).
T28F V50I I51W: nd (0 of 3 replicates).
I51S G55S R57N: nd (0 of 3 replicates).
I51Y D54L F105M: nd (0 of 3 replicates).
F27E I51F F59G: 4.10 (3 of 3 replicates).
I51K R57D K65V: nd (0 of 3 replicates).
Y32G I34D I51K: nd (0 of 3 replicates).
S31V Y32Q I51K: nd (0 of 3 replicates).
I51L R57W R100Q: nd (0 of 3 replicates).
Y32S G33K I51D: nd (0 of 3 replicates).
I51E G61H S63W: 4.91 (1 of 3 replicates).
I34N I51Q A102K: 4.72 (2 of 3 replicates).
I51G R56E D62Y: 3.75 (1 of 3 replicates).
I51S G61I R100N: 1.44 (3 of 3 replicates).
V50S I51V S63V: nd (0 of 3 replicates).
S31R I51G V64E: nd (0 of 3 replicates).
I51V F59Q R100T: 5.54 (1 of 3 replicates).
I51G A101N F105M: nd (0 of 3 replicates).
L29R Y32W I51A: 2.52 (1 of 3 replicates).
I51P G55H D106M: 2.40 (1 of 3 replicates).
I51G D54Y S107L: nd (0 of 3 replicates).
G26H I51T T58I: nd (0 of 3 replicates).
S35F I51M T58N: 3.42 (2 of 3 replicates).
I51D F105Y: nd (0 of 3 replicates).
T28V I51N Y52H: 4.93 (1 of 3 replicates).
N30L I51F S107M: nd (0 of 3 replicates).

Extract of 3 entries:

changes,"log10 Kd (nM), mean",replicates with signal
G26L V50A I51P,nd,0/3
I51L R57W R100Q,nd,0/3
T28R I51L D106Y,4.95,1/3